This passage reports inhibition results from PubChem BioAssay AID2717 (Broad Institute, 2010).

Usually inhibition stands for the relative decrease from the control value, in per cent.

SMILES strings stand for the structures. This is a selection; strong and weak results do not stand in their true shares. Calls of active or inactive are those of the source. No stated cut-off is given here; in the data, active means inhibition above about 75%; inconclusive means no clear call, values can overlap the other calls; inactive means below that; tested in HMLE shEcad cells.

The experiment in a line: growth suppression of cancer stem-like cells – cell-based, luminescence, primary screen (AID 2717). The settings on record: cancer stem cell-like cells viability, at 7.5 µM, stronger effect = higher value.
For the compound `N#CC1(Nc2ccccc2)CCN(CCc2ccccc2)CC1`, the inhibition was inactive: -1.51%.
To `CCN1CCC(Nc2ccc(Cl)cc2)CC1` belongs inactive: -10.8%.
For the compound `O=C(NCC1(N2CCCCC2)CCCCC1)c1cccc([N+](=O)[O-])c1`, the inhibition was inactive: 6.28%.
As for `O=C(NCC1(N2CCCCC2)CCCCC1)c1ccc(OC(F)F)cc1`, the figure is inactive: 18.5%.
To `COc1cc(C(=O)NCC2(N3CCCCC3)CCCCC2)ccc1OC(F)F` belongs inactive: -6.38%; to `O=C(NCC1(N2CCOCC2)CCCCC1)c1cc(=O)[nH]c2ccccc12`, inactive: 6.48%.
As for `CN1CCN(CCOC(=O)C(O)(c2ccccc2)c2ccccc2)CC1`, the figure is inactive: -3.19%; as for `O=C(NCC1(N2CCCCC2)CCCCC1)c1cccc(C(F)(F)F)c1`, inactive: -8.41%.
For `O=C(NCC1(N2CCOCC2)CCCCC1)c1cc(F)c(F)cc1Cl`, the inhibition is inactive: -11.8%.
For the compound `COc1cc(OC)c(C(=O)NCC2(N(C)C)CCCCC2)cc1OC`, the inhibition was inactive: -6.63%.
On to `CC(C)c1ccc(NC2CCN(C(=O)OC(C)(C)C)CC2)cc1`, for which the inhibition was inactive: 15.5%.
To `CN(C)c1cccc(C(=O)NCC2(N3CCCCC3)CCCCC2)c1` belongs inactive: 2.36%; to `COc1ccc(CN(CCCl)CCCl)cc1Cl`, inactive: -9.76%.
To `CCCOc1ccc(C(=O)NCC2(N(C)C)CCCCC2)cc1OC` belongs inactive: -2.41%; to `CN1CCC(Nc2cccc(F)c2)CC1`, inactive: -13.2%.
To `O=C(NCC1(N2CCCCC2)CCCCC1)c1cncc(Br)c1` belongs inactive: -3.98%; to `CSc1ccccc1C(=O)NCC1(N2CCCCC2)CCCCC1`, inactive: 6.37%; to `COc1ccc(C(=O)NCC2(N3CCCCC3)CCCCC2)c(OC)c1OC`, inactive: -5.53%.
Consider `CC(C)(C)OC(=O)N1CCC(N(C(=O)c2ccccc2)c2ccc(F)cc2)CC1`, for which the inhibition was inactive: -14.3%.
As for `COc1ccc(C(=O)NCC2(N3CCCCC3)CCCCC2)cc1`, the figure is inactive: 5.08%; as for `O=C(NCC1(N2CCCCC2)CCCCC1)c1cccs1`, inactive: -6.7%.
To `O=C(NCC1(N2CCCCC2)CCCCC1)c1ccc(=O)[nH]c1` belongs inactive: -0.956%; to `N#CC1(Nc2ccccc2)CCN(Cc2ccccc2)CC1`, inactive: -4.41%.
Take `O=C(OC1CN2CCC1CC2)C1c2ccccc2Oc2ccccc21` (stereo not drawn): the inhibition was inactive: -9.37%.
For the compound `CCOC(=O)N1CCC(Nc2ccc(OC)cc2)CC1`, the inhibition is inactive: -9.55%.
As for `Cc1cc(C)cc(N(C(=O)c2ccccc2)C2CCN(C(=O)OC(C)(C)C)CC2)c1`, the figure is inactive: 6.16%; as for `O=C(NCC1(N2CCCCC2)CCCCC1)c1ccc(Cl)nc1`, inactive: 1.48%.
For `O=C(NCC1(N2CCOCC2)CCCCC1)c1cc2ccccc2o1`, the inhibition was inactive: -1.37%.
